In patent US20080176810A1, “Use of 3, 4', 5-Trihydroxy-Stilbene-3-Beta-D-glucoside in Prepartion of Medicines For Treating and/or Preventing Ischemic Heart Disease” (SHENZHEN NEPTUNUS PHARMACEUTICAL CO., LTD., priority 2004, published 2008):
Where “and” joins values, the source holds several entries; their conditions need not be identical. Identical values can stand only once.

Assays:
[1] = tested on: chronic myocardial ischemia; experiment: Chronic myocardial ischemia in rats, intragastric administration; type: in vivo, SD rats; details: TSG 20 mg/kg intragastric, 6 weeks
Protocol: (1) Operation and Coronary artery ligation of Animal: 60 male SD rats, divided into two groups: 15 in sham operation group and 45 in operation group, were immobilized on their backs by anesthesia of urethane ip at the dose of 100 mg/kg. Electrocardiograph (ECG-6851C, made by Shanghai Photoelectrical & Electronic Medical Apparatus Co., Ltd.) was used to record II lead electrocardiogram. Tracheal intubation was performed and connected into an artificial respirator and thoracotomy was performed at the fourth intercostal space of left sternal border after the skin sterilization. With exposure of the heart, the ligation was conducted at 3-4 mm of the root of left anterior descending coronary artery. ECG was monitored during the whole process and the graph showing significant elevation and depression of ST segment as well as the elevated T-wave amplitude was viewed as the indexes for the success of coronary artery ligation. After the ligation, thorax was closed and the air was drawn out. Regular feeding was continued after the operation, and the intramuscular injection of Penicillin was performed to prevent infection in 1 week after the operation. Thoracotomy was performed in sham operation group without coronary artery ligation. […]
(1) Evaluation of therapeutic effect: Therapeutic effect was evaluated at the 12th week after the operation. […]

Kunming mice = experiment: Acute toxicity test of mice, intravenous injection; details: tail intravenous injection

3,4′,5-trihydroxy-stilbene-3-β-D-glucoside [TSG]
Infarct size ratio [1]: 5.9 ± 1.2^ΔΔ % | LD50 (Kunming mice): 648.94 mg/kg and 640 mg/kg
